Measured values from patent publication US9522128B2 (FUNDACION PARA LA INVESTIGACION BIOMEDICA DEL HOSPITAL …, priority 2008, dated 2016).

Test system: primary cultures of proximal tubular cells (PTCs)
Test: Cell growth dynamics in primary culture of proximal tubular cells
Conditions: post hoc analysis; cyclosporin 1 μg/mL and 10 μg/mL; tacrolimus (FK-506)

Cyclosporin A was tested. Which “day of culture from which cell growth is significantly decreased compared to control” value did it give?
Its value is ≥ 8 days.
